Biological target: T1, S100A1 protein, dansyl-labelled (human, UniProt P23297 1-94, dansyl (DNS) label from dansyl chloride, site not stated)
T1 construct: human S100A1; cDNA cloned into pET28b; No tag is mentioned; purification was by Phenyl Sepharose; also called DNS-S100A1; Ca2+-S100A1; source: E. coli BL21, purified (Phenyl Sepharose CL4B, Superdex 75), labelled with dansyl chloride
T1 sequence (looked up): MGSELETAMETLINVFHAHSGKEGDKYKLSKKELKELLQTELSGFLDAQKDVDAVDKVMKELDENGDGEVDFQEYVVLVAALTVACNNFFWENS
Test: fluorescence polarisation; steady-state fluorescence anisotropy; TRPC6 construct titrated into DNS-S100A1 solution (232 µM as printed) in presence of calcium ions; excitation 340 nm, emission 520 nm
Details: both partners purified

- Kd: 310 nM
B1: TRPC6 C-terminal protein construct (801–878), wild type (domain or fragment, rat, UniProt Q99N78 801-878, looked up)
chain: NKRNEEKKFGILGSHEDLSKFSLDRNQLAHNKQSSTRSSEDFHLNSFSNPPRQYQKIMKRLIKRYVLQAQIDKESDEV

Source: publication PMC3643951, “Characterization of the S100A1 Protein Binding Site on TRPC6 C-Terminus” (PLoS ONE, 2013)
